PINK1 modulator: changes PINK1 expression; PINK1 immunofluorescence, high-content cytometry, 24 h; Potency, µM (top dose mostly 76.6 µM), inactives show top-dose activation (PINK1 increase), hits mostly activators; hit rate 0.2% among 410,000; AID 624263; active means well fitted activation curve with a large enough effect; inconclusive means small, poorly fitted or top-dose-only effect; cell line not stated here; further: potency means the concentration at half of the fitted maximal effect; % of control where 0% means no effect; nearly all actives have a fitted effect of over 65% in size
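PINK1 protein level read as immunofluorescence by microplate cytometer in a fixed, stained stable cell line after 24 h exposure to five compound concentrations, with CCCP as control.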
GALK inh: blocks human galactokinase activity. P51570. Purified GALK, Kinase-Glo residual ATP luminescence. Potency, µM (highest dose often 57.5 µM), without a hit: top-dose activity change, negative = inhibition, usual class: inhibitors. hit rate 0.007% among 270,000; further: potency means the concentration at half of the fitted maximal effect; on the % scale 0 is the no-effect control and ±100 the full control effect
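Human GALK (5 nM) with 35 uM ATP and 100 uM galactose in 20 mM HEPES pH 8.0, 5 mM MgCl2, 60 mM NaCl, 1 mM DTT, 0.01% BSA. After 1 h at room temperature, leftover ATP was read by Kinase-Glo Plus luminescence.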
TrxR1 inh: rat TrxR1 inhibition; Potency, µM (doses to about 114 µM), for the others: at the highest dose activity change, negative = inhibition, usual class: inhibitors; hit rate 1% among 390,000; recombinant rTrxR1, NADPH fluorescence consumption, selenite substrate; O89049; further: potency means the concentration at half of the fitted maximal effect; on the % scale 0 is the no-effect control and ±100 the full control effect; nearly all actives have a fitted effect of over 65% in size
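Rat TrxR1 (90 nM in the dispensed reagent) was pre-reduced with 400 uM NADPH for 5 min at room temperature, then incubated with compound for 15 min. After 400 uM selenite was added, NADPH fluorescence (Ex 340/Em 450 nm) was followed for 8 min.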
TrxR1 substrate: is turned over as a substrate by rat TrxR1; purified TrxR1 substrate turnover, NADPH consumption readout; Potency, µM (series often up to 114 µM), inactives show top-dose activity change, negative = substrate turnover; O89049; hit rate 0.01% among 390,000; further: potency means the concentration at half of the fitted maximal effect; on the % scale 0 is the no-effect control and ±100 the full control effect; nearly all actives have a fitted effect of over 50% in size
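Rat TrxR1, dispensed at 90 nM, was prereduced with 400 uM NADPH (final) for 5 min at ~22 deg C, then incubated with compound 15 min before 400 uM selenite. A first-read NADPH fluorescence drop versus no-compound background flagged substrates.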
miR-21 reporter: miR-21 reporter, rising signal | AID 2288 | HeLa miR-21 FLuc reporter, luciferase, 48 h | 340,000 tested, under 10 active | Potency, µM (titrated, usually from 38.3 µM), for the others: at the top dose reporter change, positive = more light; active = well fitted rising curve with a large enough effect; inconclusive = small, poorly fitted or top-dose-only effect; inactive = no such curve, though single readings can be large or run the other way;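 also: % of control where 0% means no effect; miR-21 action dims this reporter so a rising signal means less miR-21 action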
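HeLa cells endogenously expressing miR-21, stably carrying CMV-driven firefly luciferase with a downstream miR-21 binding site, 2000 cells/well. Titrations up to approximately 40 uM, 48 hours; luciferase luminescence read.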
* = called active by the depositor; u = inconclusive; x = no result given; [ ] = dose if it differs, or a comment. Sampled rows, rich in hits. Any-hit rate of the full collection: about 1.1%. Unless noted, the call rests on the fitted dose curve; in most records, active means well fitted curve in the direction sought with a large enough effect; inconclusive means small, poorly fitted or top-dose-only effect, or another doubt; inactive means no such curve, though single readings can be large; an effect the other way counts as inactive or inconclusive.

SMILES	PINK1 modulator	GALK inh	TrxR1 inh	TrxR1 substrate	miR-21 reporter
COc1ccccc1NC(CC(=O)c1ccccc1)C(=O)OCC(=O)c1ccc(C)c(C)c1 (stereo not drawn)	18%	-2%	45µM*	-8%	-60%
COc1ccccc1NC(CC(=O)c1ccccc1)C(=O)OCC(=O)c1ccc(Br)cc1 (stereo not drawn)	2%	x	71µM*	-6%	-55%
O=C(CC(Nc1ccccc1Cl)C(=O)OCC(=O)c1cccs1)c1ccccc1 (stereo not drawn)	x	2%	13µM*	14%	-43%
Cc1c(CN2CCOc3ccc(C(C)(O)COc4ccccc4)cc3C2)cnn1C (stereo not drawn)	0%	x	x	x	x
CC1=C(C#N)C(=O)NC(=O)/C1=C\c1ccc(-c2ccc(C)cc2[N+](=O)[O-])o1	1%	-5%	16µM*	2%[57.1 µM]	-16%
Cc1ccc(-c2ccc(/C=N/N=C3/NC(=O)C(CC(=O)O)S3)o2)c([N+](=O)[O-])c1 (stereo not drawn)	1%	-8%	-32%	u	-3%
CCOC(=O)c1cc(-c2ccc(/C=C3/C(=O)NC(=O)C(C#N)=C3C)o2)ccc1Cl	-2%[38.3 µM]	6%	10µM*	-2%[57.1 µM]	-11%
CCCN(CCC)CC(O)CN(c1ccccc1)S(=O)(=O)c1ccc(C)cc1 (stereo not drawn)	-1%	1%	12%[57.1 µM]	3%[57.1 µM]	-3%
Cc1ccc(N(CC(O)COCc2ccco2)S(=O)(=O)c2ccc(C)cc2)cc1 (stereo not drawn)	0%[38.3 µM]	-4%	7.1µM*	4%	-6%
O=C(CCC1CCCN(C(=O)c2ccc3c(c2)OCCO3)C1)NCc1ccccc1F (stereo not drawn)	2%	0%	-13%	-9%	-43%
Cc1ccc(CNC(=O)CCC2CCCN(C(=O)c3ccc4c(c3)OCO4)C2)o1 (stereo not drawn)	3%	0%	71µM*	-4%	-12%
CCCCCc1cc(O)c2c(C)cc(=O)oc2c1	11µM*	0%	4%	-4%	27%

4 successive records from above, for reference:
SMILES	PINK1 modulator	GALK inh	TrxR1 inh	TrxR1 substrate	miR-21 reporter
Cc1ccc(-c2ccc(/C=N/N=C3/NC(=O)C(CC(=O)O)S3)o2)c([N+](=O)[O-])c1 (stereo not drawn)	1%	-8%	-32%	u	-3%
CCOC(=O)c1cc(-c2ccc(/C=C3/C(=O)NC(=O)C(C#N)=C3C)o2)ccc1Cl	-2%[38.3 µM]	6%	10µM*	-2%[57.1 µM]	-11%
CCCN(CCC)CC(O)CN(c1ccccc1)S(=O)(=O)c1ccc(C)cc1 (stereo not drawn)	-1%	1%	12%[57.1 µM]	3%[57.1 µM]	-3%
Cc1ccc(N(CC(O)COCc2ccco2)S(=O)(=O)c2ccc(C)cc2)cc1 (stereo not drawn)	0%[38.3 µM]	-4%	7.1µM*	4%	-6%

Other structures:
SMILES	PINK1 modulator	GALK inh	TrxR1 inh	TrxR1 substrate	miR-21 reporter
CCCCN(C)C1=CC2=CC(=C(C#N)C#N)CCC2CC1 (stereo not drawn)	13µM*	2%	4%[57.1 µM]	4%[57.1 µM]	-3%
CCN(CC)C1=CC2=CC(=C(C#N)C#N)CCC2CC1 (stereo not drawn)	u	1%	8%[57.1 µM]	2%[57.1 µM]	-4%
COC(=O)c1ccc(C2Nc3c(C)cc(C)cc3C3C=CCC32)cc1 (stereo not drawn)	1%	x	4µM*	14%	6%
Cc1cc(C)c2c(c1)[C@@H]1C=CC[C@@H]1[C@H](c1ccc(S(=O)(=O)N3CCOCC3)cc1)N2	0%	-1%	2.8µM*	-4%	4%
COc1cc(=O)n2c(c1C(=O)N(C)Cc1nccs1)CCN(Cc1ccc(F)c(F)c1)CC2	-1%	x	x	x	x
CC(C)c1c(C(=O)NCc2ccccn2)cnn1-c1nccc(-c2ccccc2F)n1	1%	x	x	x	x
O=C(CCS(=O)(=O)c1nc(-c2cccs2)cc(C(F)(F)F)n1)Nc1cccc(O)c1	-1%	x	18µM*	9%[2.29 µM]	u
COc1cc(NC(=O)CCS(=O)(=O)c2nc(-c3cccs3)cc(C(F)(F)F)n2)cc(OC)c1OC	2%	x	u	-3%	21%
COc1ccc(NC(=O)CCS(=O)(=O)c2nc(-c3cccs3)cc(C(F)(F)F)n2)cc1OC	1%	x	25µM*	-5%[2.29 µM]	u
Cc1noc(C)c1S(=O)(=O)NCCc1csc2nc(-c3ccc(Cl)cc3)nn12	-1%	x	1%[57.1 µM]	-7%[57.1 µM]	14%
Cc1ccc(C)c2c1NC(C(=O)O)C1CC=CC21 (stereo not drawn)	0%	x	3.2µM*	6%	x
O=C(O)C1Nc2c(O)cccc2C2C=CCC12 (stereo not drawn)	u	1%	35µM*	-8%	18%
O=C(OC1CCCCC1)c1ccc2c(c1)C1C=CCC1C(C(=O)O)N2 (stereo not drawn)	x	-1%	x	x	-11%
O=C(O)C1Nc2c(Cl)cc(Cl)cc2C2C=CCC12 (stereo not drawn)	-1%	4%	20µM*	4%	1%
O=C(O)C1Nc2c(Cl)cc(Cl)c(Cl)c2C2C=CCC12 (stereo not drawn)	0%	x	u	-1%	x
COc1ccc(C(=O)N2CCCC(c3nc(SCc4ccccn4)ncc3C)C2)cc1F (stereo not drawn)	0%	x	x	x	x
COc1cccc(-c2nc3cc(SC)ccc3cc2CN(C(=O)c2sccc2C)C2CC2)c1	1%	x	x	x	x
COc1cc(C(=O)Nc2sc3c(c2C#N)CCCC3)c(Br)c(OC)c1OC	2%	x	7%	1%	25%
COC(=O)c1ccccc1-c1cc(C)cc2c1OC(CNC(=O)C1CCCO1)C2 (stereo not drawn)	0%	x	x	x	x
N#CC1=C(N)N(c2ccc(F)cc2)C2=C(C1c1ccc(O)cc1)S(=O)(=O)CC2 (stereo not drawn)	4%	-6%	7.9µM*	9%[57.1 µM]	0%
S=C(c1cn(CCOc2cccc3ccccc23)c2ccccc12)N1CCCC1	28µM*	x	-4%	-7%	2%
S=C(c1cn(CCOc2ccccc2)c2ccccc12)N1CCCC1	u	3%	1%	-5%	6%
Nc1c(Br)c(=O)[nH]c(=O)n1-c1ccc(F)cc1	1%	x	40µM*	-1%	2%
Nc1c(N=O)c(=O)[nH]c(=O)n1-c1ccccc1	1%	x	8%[57.1 µM]	-12%	x

An excerpt of these results, with values under each structure:
The line under a structure holds: PINK1 modulator, GALK inh, TrxR1 inh, TrxR1 substrate, miR-21 reporter
- COC(=O)c1ccccc1-c1cc(C)cc2c1OC(CNC(=O)C1CCCO1)C2 (stereo not drawn)
  0%, x, x, x, x
- N#CC1=C(N)N(c2ccc(F)cc2)C2=C(C1c1ccc(O)cc1)S(=O)(=O)CC2 (stereo not drawn)
  4%, -6%, 7.9µM*, 9%[57.1 µM], 0%

Additional entries:
SMILES	PINK1 modulator	GALK inh	TrxR1 inh	TrxR1 substrate	miR-21 reporter
O=C1/C(=C/c2ccco2)CCc2ccccc21	3%	x	-7%	-10%	-80%
Nc1ccc2c(c1)C/C(=C/c1ccco1)C2=O	3%	5%	56µM*	-5%	-37%
COc1ccc2c(c1)CCc1c(C(=O)N3CCCCCC3)noc1-2	-4%[38.3 µM]	0%	11µM*	1%	-52%
CCCNC(=O)c1noc2c1CCc1cc(OC)ccc1-2	2%	-2%	u	-10%	-48%
Cc1ccccc1-c1noc(-c2ccc(N3CCCC3)c([N+](=O)[O-])c2)n1	0%	x	9%	25%	-26%
CC(=O)SC(C[N+](=O)[O-])c1cn(C(C)=O)c2ccccc12 (stereo not drawn)	-5%	-1%	18µM*	2%	28%
COC(=O)c1cc(CNC(=O)c2ccc(N(C)C)cc2)cc(NC(=O)c2ccccc2Cl)c1	0%	x	x	x	x
CCOC(=O)c1ccc(-n2c(CN3CCC(O)CC3)nc3ccc([N+](=O)[O-])cc3c2=O)cc1	0%	4%	50µM*	-10%	-3%
CN1c2ccccc2C(C)(C)C12CC(CCl)=NO2 (stereo not drawn)	-3%	0%	25µM*	-2%[57.1 µM]	-1%
COc1ccc(C(C#N)N2CCC(c3ccccc3)=N2)cc1 (stereo not drawn)	3%	3%	16µM*	8%[57.1 µM]	-27%

Bioassay records deposited in PubChem by National Center for Advancing Translational Sciences (NCATS).
